PubChem BioAssay (NCI)
Some structures show a salt or complex split into parts, the way the source records it.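 Dose response: 5 concentrations. Exposure: 48 h. Format: 96-well plates. Endpoint: linear interpolation; highest concentration if not reached. GI50 marks 50% less growth. TGI: total growth inhibition.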

What was measured:
Assay in all cases: NCI-60 cell line screen, 48 h
[1] = test system: IGROV1 ovarian
[2] = test system: HOP-62 NSCLC
[3] = test system: M19-MEL melanoma
[4] = test system: DMS 273 small cell lung
[5] = test system: LOX IMVI melanoma
[6] = test system: HCC-2998 colon
[7] = test system: UO-31 renal
[8] = test system: OVCAR-5 ovarian
[9] = test system: NCI-H460 lung
[10] = test system: UACC-257 melanoma
[11] = test system: A549 NSCLC
[12] = test system: SK-MEL-2 melanoma
[13] = test system: MOLT-4 leukemia
[14] = test system: HOP-92 NSCLC
[15] = test system: KM20L2 colon
[16] = test system: U251 CNS
[17] = test system: CCRF-CEM leukemia
[18] = test system: RXF 393 renal
[19] = test system: EKVX NSCLC
[20] = test system: SK-OV-3 ovarian
[21] = test system: SF-539 CNS
[22] = test system: SW-620 colon
[23] = test system: HCT-15 colon
[24] = test system: M14 melanoma
[25] = test system: OVCAR-3 ovarian
[26] = test system: UACC-62 melanoma
[27] = test system: LXFL 529 NSCLC
[28] = test system: SF-295 CNS
[29] = test system: HL-60(TB) leukemia
[30] = test system: OVCAR-4 ovarian
[31] = test system: SK-MEL-28 melanoma
[32] = test system: SNB-75 CNS
[33] = test system: NCI-H522 lung
[34] = test system: HCT-116 colon
[35] = test system: RPMI-8226 leukemia
[36] = test system: SNB-19 CNS
[37] = test system: DLD-1 colon
[38] = test system: HT29 colon
[39] = test system: NCI-H23 lung
[40] = test system: SF-268 CNS
[41] = test system: MALME-3M melanoma
[42] = test system: SN12C renal
[43] = test system: TK-10 renal
[44] = test system: SK-MEL-5 melanoma
[45] = test system: CAKI-1 renal
[46] = test system: NCI-H226 lung
[47] = test system: K-562 leukemia
[48] = test system: OVCAR-8 ovarian
[49] = test system: ACHN renal
[50] = test system: 786-0 renal
[51] = test system: COLO 205 colon
[52] = test system: NCI-H322M lung

`CC(=O)[CH-]C(=O)c1ccccc1.CC(=O)[CH-]C(=O)c1ccccc1.O=C([O-])C([O-])(c1ccccc1)c1ccccc1.O=C([O-])C([O-])(c1ccccc1)c1ccccc1.[Ti+4]` showed a GI50 [1] of 57.3 µM, a TGI [1] of over 100 µM and a GI50 [2] of 46.1 µM. The TGI [2] was over 100 µM, the GI50 [3] was 34.7 µM and the TGI [3] was over 100 µM. For the same compound, the GI50 [4] was 63.3 µM, the TGI [4] was over 100 µM and the GI50 [5] was 33.4 µM. It also gave a TGI [5] of over 100 µM, a GI50 [6] of 63.3 µM and a TGI [6] of over 100 µM. It also gave a GI50 [7] of 29.2 µM, a TGI [7] of over 100 µM and a GI50 [8] of 37.2 µM. The TGI [8] was over 100 µM, the GI50 [9] was 51.1 µM and the TGI [9] was over 100 µM. The GI50 [10] was 71.5 µM, the TGI [10] was over 100 µM and the GI50 [11] was 65.5 µM. For the same compound, the TGI [11] was over 100 µM, the GI50 [12] was 30 µM and the TGI [12] was over 100 µM. The GI50 [13] was 20.8 µM, the TGI [13] was over 100 µM and the GI50 [14] was 21.6 µM. For the same compound, the TGI [14] was 57.8 µM, the GI50 [15] was 41.6 µM and the TGI [15] was over 100 µM. It also gave a GI50 [16] of 42.6 µM, a TGI [16] of over 100 µM and a GI50 [17] of 18.8 µM. It also gave a TGI [17] of over 100 µM, a GI50 [18] of 36.2 µM and a TGI [18] of over 100 µM. For the same compound, the GI50 [19] was 47.4 µM, the TGI [19] was over 100 µM and the GI50 [20] was 32.2 µM. The TGI [20] was over 100 µM, the GI50 [21] was 37.2 µM and the TGI [21] was over 100 µM. It also gave a GI50 [22] of 34.4 µM, a TGI [22] of over 100 µM and a GI50 [23] of 59.8 µM. For the same compound, the TGI [23] was over 100 µM, the GI50 [24] was 27.7 µM and the TGI [24] was over 100 µM. The GI50 [25] was 53.2 µM, the TGI [25] was over 100 µM and the GI50 [26] was 43.1 µM. For the same compound, the TGI [26] was over 100 µM, the GI50 [27] was 23.9 µM and the TGI [27] was over 100 µM. For the same compound, the GI50 [28] was 36.2 µM, the TGI [28] was over 100 µM and the GI50 [29] was 17.2 µM. It also gave a TGI [29] of 50.6 µM, a GI50 [30] of 26.8 µM and a TGI [30] of over 100 µM. For the same compound, the GI50 [31] was 35.3 µM, the TGI [31] was over 100 µM and the GI50 [32] was 4.39 µM. It also gave a TGI [32] of over 100 µM, a GI50 [33] of 21.3 µM and a TGI [33] of 82.6 µM. The GI50 [34] was 34.2 µM, the TGI [34] was over 100 µM and the GI50 [35] was 30.2 µM. It also gave a TGI [35] of over 100 µM, a GI50 [36] of 54.5 µM and a TGI [36] of over 100 µM. It also gave a GI50 [37] of 56.2 µM, a TGI [37] of over 100 µM and a GI50 [38] of 39.1 µM. For the same compound, the TGI [38] was over 100 µM, the GI50 [39] was 24.4 µM and the TGI [39] was over 100 µM. The GI50 [40] was 38 µM, the TGI [40] was over 100 µM and the GI50 [41] was 32.4 µM. For the same compound, the TGI [41] was over 100 µM, the GI50 [42] was 54.9 µM and the TGI [42] was over 100 µM. The GI50 [43] was over 100 µM, the TGI [43] was over 100 µM and the GI50 [44] was 33.2 µM. The TGI [44] was over 100 µM, the GI50 [45] was 70.2 µM and the TGI [45] was over 100 µM. It also gave a GI50 [46] of 20.2 µM, a TGI [46] of 77.3 µM and a GI50 [47] of 28.7 µM. It also gave a TGI [47] of over 100 µM, a GI50 [48] of 41.5 µM and a TGI [48] of over 100 µM. It also gave a GI50 [49] of over 100 µM, a TGI [49] of over 100 µM and a GI50 [50] of 45.1 µM. For the same compound, the TGI [50] was over 100 µM, the GI50 [51] was 34.4 µM and the TGI [51] was over 100 µM. For the same compound, the GI50 [52] was 36.3 µM and the TGI [52] was over 100 µM.
